Laboratory results from publication PMC7293934 (Neuropharmacology, 2020).

Sequences of proteins named here, by UniProt entry; tags and fusion partners are left off. Residues count along the entry.
UniProt Q62645, 28-1323: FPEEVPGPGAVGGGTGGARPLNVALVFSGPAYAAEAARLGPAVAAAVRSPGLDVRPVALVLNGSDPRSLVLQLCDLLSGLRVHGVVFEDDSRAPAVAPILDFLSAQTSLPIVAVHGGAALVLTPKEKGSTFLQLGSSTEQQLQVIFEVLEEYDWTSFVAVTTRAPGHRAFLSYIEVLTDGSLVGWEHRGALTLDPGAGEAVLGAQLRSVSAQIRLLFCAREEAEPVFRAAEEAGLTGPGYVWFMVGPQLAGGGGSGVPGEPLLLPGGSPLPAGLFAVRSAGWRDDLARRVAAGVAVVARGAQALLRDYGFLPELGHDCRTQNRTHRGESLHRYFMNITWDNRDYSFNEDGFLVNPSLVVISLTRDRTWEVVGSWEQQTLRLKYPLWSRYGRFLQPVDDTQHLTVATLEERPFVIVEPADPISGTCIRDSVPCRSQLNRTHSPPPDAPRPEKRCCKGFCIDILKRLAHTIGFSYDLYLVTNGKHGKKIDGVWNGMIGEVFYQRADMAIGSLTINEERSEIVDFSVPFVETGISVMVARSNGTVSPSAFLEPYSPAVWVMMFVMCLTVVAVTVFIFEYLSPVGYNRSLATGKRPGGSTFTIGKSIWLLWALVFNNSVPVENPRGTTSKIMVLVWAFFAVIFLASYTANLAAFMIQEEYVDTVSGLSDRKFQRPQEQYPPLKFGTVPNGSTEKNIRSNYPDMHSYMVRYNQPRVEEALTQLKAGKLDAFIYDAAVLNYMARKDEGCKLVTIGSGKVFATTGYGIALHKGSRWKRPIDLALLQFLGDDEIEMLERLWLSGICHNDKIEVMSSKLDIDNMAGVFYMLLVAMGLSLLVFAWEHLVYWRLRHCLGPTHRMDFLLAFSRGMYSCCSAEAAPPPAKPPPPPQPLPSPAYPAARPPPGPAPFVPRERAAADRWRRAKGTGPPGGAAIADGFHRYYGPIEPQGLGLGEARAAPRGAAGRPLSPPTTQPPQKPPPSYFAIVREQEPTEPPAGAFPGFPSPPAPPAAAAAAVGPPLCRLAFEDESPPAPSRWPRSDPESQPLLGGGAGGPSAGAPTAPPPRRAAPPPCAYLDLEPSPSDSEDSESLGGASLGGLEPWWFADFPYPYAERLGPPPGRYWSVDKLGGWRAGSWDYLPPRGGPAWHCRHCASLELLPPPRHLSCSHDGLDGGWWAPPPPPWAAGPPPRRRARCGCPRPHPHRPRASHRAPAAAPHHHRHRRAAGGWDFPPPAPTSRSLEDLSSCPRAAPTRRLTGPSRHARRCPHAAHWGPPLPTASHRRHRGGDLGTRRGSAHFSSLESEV
UniProt Q00961, 20-1237: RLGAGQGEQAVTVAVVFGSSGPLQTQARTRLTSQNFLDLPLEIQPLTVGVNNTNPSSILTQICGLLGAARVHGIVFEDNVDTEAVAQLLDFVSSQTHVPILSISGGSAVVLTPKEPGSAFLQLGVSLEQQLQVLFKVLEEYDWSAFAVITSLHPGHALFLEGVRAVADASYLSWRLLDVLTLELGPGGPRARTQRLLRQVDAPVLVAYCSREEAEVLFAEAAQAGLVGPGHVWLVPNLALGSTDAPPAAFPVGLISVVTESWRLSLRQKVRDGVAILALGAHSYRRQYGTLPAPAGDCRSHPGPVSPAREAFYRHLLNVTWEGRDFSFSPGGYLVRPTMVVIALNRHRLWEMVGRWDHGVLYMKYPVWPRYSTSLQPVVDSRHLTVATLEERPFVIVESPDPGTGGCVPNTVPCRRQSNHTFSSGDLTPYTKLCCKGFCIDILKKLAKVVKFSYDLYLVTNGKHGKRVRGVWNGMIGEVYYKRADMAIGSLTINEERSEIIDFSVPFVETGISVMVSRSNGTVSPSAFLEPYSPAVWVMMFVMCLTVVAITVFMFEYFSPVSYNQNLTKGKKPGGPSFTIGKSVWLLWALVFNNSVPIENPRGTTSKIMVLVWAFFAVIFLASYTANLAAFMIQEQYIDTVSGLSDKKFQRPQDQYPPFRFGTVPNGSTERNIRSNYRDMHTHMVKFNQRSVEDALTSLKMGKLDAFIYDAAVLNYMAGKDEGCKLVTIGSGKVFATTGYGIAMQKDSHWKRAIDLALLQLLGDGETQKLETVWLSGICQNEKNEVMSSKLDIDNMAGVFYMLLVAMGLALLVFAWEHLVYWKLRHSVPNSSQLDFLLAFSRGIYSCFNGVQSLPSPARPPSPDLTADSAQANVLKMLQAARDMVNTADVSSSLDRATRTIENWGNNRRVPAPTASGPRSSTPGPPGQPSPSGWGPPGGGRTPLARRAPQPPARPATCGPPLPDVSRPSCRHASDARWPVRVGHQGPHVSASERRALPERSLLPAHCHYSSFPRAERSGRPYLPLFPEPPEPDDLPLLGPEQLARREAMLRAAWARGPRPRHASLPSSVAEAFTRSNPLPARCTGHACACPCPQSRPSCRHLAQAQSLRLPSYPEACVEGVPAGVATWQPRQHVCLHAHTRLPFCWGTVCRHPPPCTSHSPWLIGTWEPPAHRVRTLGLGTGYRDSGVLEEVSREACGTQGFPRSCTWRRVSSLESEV

How the values were obtained:
GluN1/2D = GluN1/2D (Rattus norvegicus, UniProt P35439+Q62645); format: cell-based; conditions: control (no modulator); continuous 100 μM glutamate
GluN1/2C = GluN1/2C (Rattus norvegicus, UniProt P35439+Q00961); format: cell-based; conditions: control (no modulator); continuous 100 μM glutamate

In the case of `NCC(=O)O` [glycine, reference compound], the “nH (glycine)” value (GluN1/2D) was 1.5 and 1.8 and the “nH (glycine)” value (GluN1/2C) was 1.6.

Where “and” joins values, the source holds several entries; their conditions need not be identical. Equal values may be shown once.
